Data on three compounds can be found in patent US9480684B2, “Orvinol and thevinol derivatives useful in the treatment of anxiety or a compulsive disorder” (dated 2016).

The chains behind the UniProt entries cited, without tags or fusion partners. Where a name states a change or a piece, a line headed by the entry shows the natural chain unless it says otherwise.
UniProt P41145: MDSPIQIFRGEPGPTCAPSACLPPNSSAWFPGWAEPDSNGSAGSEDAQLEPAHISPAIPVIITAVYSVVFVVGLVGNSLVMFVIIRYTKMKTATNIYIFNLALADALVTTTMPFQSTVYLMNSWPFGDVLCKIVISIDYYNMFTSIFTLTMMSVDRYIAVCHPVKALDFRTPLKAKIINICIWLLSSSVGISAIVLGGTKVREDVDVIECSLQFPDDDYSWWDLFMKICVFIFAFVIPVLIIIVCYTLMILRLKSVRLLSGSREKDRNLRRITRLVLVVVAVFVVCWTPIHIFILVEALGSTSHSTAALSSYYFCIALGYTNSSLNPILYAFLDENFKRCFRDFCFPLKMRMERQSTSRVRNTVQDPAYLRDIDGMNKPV

The assay has as its target human KOR (CHO cell membranes) (Homo sapiens (Human), UniProt P41145). Put plainly: [35S]GTPγS binding assay, kappa receptor. To be noted: for Kappa % stim: single concentration (10 μM) versus the standard U69,593. (GTPγS resists hydrolysis and so accumulates on activated G proteins.)

Molecules are shown by their SMILES.

For `CO[C@]12CC[C@@]3(C[C@]1(C)[C@H](O)c1ccc(F)cc1)[C@H]1Cc4ccc(O)c5c4[C@@]3(CCN1CC1CC1)[C@H]2O5`, the Kappa % stim is listed as −5%.
Still for that read-out and setting: the figure for `CO[C@]12CC[C@@]3(C[C@]1(C)[C@H](O)c1cccc(C)c1)[C@H]1Cc4ccc(O)c5c4[C@@]3(CCN1CC1CC1)[C@H]2O5` is −1%.
Turning to `CO[C@]12C=C[C@@]3(C[C@]1(C)[C@H](O)c1ccccc1)[C@H]1Cc4ccc(O)c5c4[C@@]3(CCN1CC1CC1)[C@H]2O5`, the Kappa % stim stood at 3%. Further, where the note is “against standard agonist U69,593”, the “Kappa antagonist potency Ke” value was determined as 0.41 nM.
